Yeast mating assay 1: variants of the scFv Ab-14

Data: MIT Lincoln Laboratory AlphaSeq set, Engelhart et al. 2022, doi:10.1038/s41597-022-01779-4, as distributed in FLAb.

All variants were tested on one target, the spike HR2 peptide PDVDLGDISGINAS (SARS-CoV-2).

Each scFv is VH, a 15-residue (Gly4Ser)3 linker, VL, as in the parent Ab-14, and differs from it in the CDRs of the light chain only.
VH: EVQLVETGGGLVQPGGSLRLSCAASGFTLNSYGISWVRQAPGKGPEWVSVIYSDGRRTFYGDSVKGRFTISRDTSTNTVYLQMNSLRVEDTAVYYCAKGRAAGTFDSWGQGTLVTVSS
VL: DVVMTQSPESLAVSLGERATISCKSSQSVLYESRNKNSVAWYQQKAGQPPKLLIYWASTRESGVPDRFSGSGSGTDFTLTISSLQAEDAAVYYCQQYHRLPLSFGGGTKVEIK

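The starting antibody came from a phage panning campaign against this peptide. The library (AAYL50) carries one to three amino acid substitutions per variant, with no insertions or deletions. The assay is AlphaSeq: two haploid yeast populations carry antibody and antigen on their surface. After mating in shaken culture at 30 °C for 16 h, diploids were selected and their barcode pairs sequenced. The ratio of observed to expected reads was calibrated, replicate by replicate, on BCL2-family standards whose Kd was known from biolayer interferometry. The assay was run in three technical replicates.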

Changes read parent residue, position, new residue, counted from the first residue of the VL shown. These are single substitutions, in order of position. Numbers give log10(Kd / nM), so 0 is 1 nM and 3 is 1 µM. Smaller is tighter. A mean of the replicates is given; it leaves out those without a signal. An entry "no signal" has no value in the source: the pair was not observed among the diploids in any replicate. This suggests poor binding but is not conclusive. For reference, the parent read 0.65 as the reference entry and 1.68 as a member of this library. Nonspecific signal, from three strains lacking the peptide, appeared in 18% of pairings of library AAYL50, centred on 4.19 (5% of these signals below 2.99); values are not corrected for it.

The variant S103C showed 1.78 (3 of 3 replicates).
The variant S103V showed 0.96 (3 of 3 replicates).
The variant S103L showed 0.68 (3 of 3 replicates).
The variant S103Y showed 1.97 (3 of 3 replicates).
The variant S103D showed no signal (0 of 3 replicates).
The variant S103K showed 1.95 (3 of 3 replicates).
The variant S103Q showed 1.12 (3 of 3 replicates).
The variant S103E showed 0.89 (3 of 3 replicates).
The variant S103N showed 1.88 (3 of 3 replicates).
The variant S103M showed 1.19 (3 of 3 replicates).
The variant S103A showed 0.70 (3 of 3 replicates).

Excerpt, the final 2 entries:

changes,mean log10 Kd (nM),seen in
S103M,1.19,3 of 3
S103A,0.70,3 of 3